Tested on: CCOC(=O)CCCCC(=O)CCCl
Test: purified protein, by the assay type
Settings: other: WT, substrate 0.1-10 mM, NADPH, PB pH 7.0, 30° C.

Substance “Candida orthopsilosis Co 90-125 carbonyl reductase CoCR 13 (Genbank XP_003867714.1), wild type (WT), SEQ ID NO: 1 (Lodderomyces orthopsilosis Co 90-125)” has a Km of 5.12 ± 0.87 mM.
